Literature values in patent US20140171372A1, “Treatments for Alzheimer's disease” (priority 2012, published 2014).

Tested on: patients

Substance: Bapineuzumab
- outcome of clinical trial in AD: failure
